Source: patent US20140235578A1, “METHODS FOR TREATING NEOPLASIA AND FOR IDENTIFYING COMPOSITIONS USEFUL IN SUCH THERAPY” (priority 2007, published 2014)

Tests used:
H9C2 cardiomyocytes [1] = assay type: cell-based
Description: (§1) Vitamin C and NAC were added 30 min prior to doxorubicin. Cell lysates were then analyzed by Western blotting using anti-γ-H2AX or anti-α-tubulin antibody. […] Cell lysates were then analyzed by Western blotting (upper panel) using anti-γ-H2AX or anti-α-tubulin antibody. Quantification of γ-H2AX signals is shown in the lower panel. C, H9C2 cells were treated with 0.1% DMSO (labeled DMSO), bortezomib (1 μM) or MG132 (4 μM) for 30 min, followed by co-treatment with either 0.1% DMSO (labeled control) or 0.5 μM doxorubicin (labeled Doxo) for 1.5 hrs. Neutral comet assay was then performed as described in Materials and Methods. The average comet tail moments were plotted as histograms (mean±SEM). *p-value<0.001, t-test.
The amount of Top2 cleavage complexes was measured by a band depletion assay as described in Materials and Methods. Cells were lysed either immediately or after reversal of the Top2 cleavage complexes (labeled R+250). Cell lysates were analyzed by Western blotting using anti-Top2α/Top2β or anti-α-tubulin antibody. […] Cells were then lysed and protein levels of Top2α, and Top2β isozymes were determined by Western blotting. […] Cell lysates were immunoblotted using anti-Top2β antibody. D, H9C2 cells were treated with ICRF187 (100 μM) for 4 hrs, followed by treatment with doxorubicin (Doxo, 0, 0.5 and 1 μM) for 1.5 hrs. […]

H9C2 cardiomyocytes [2] = assay: γ-H2AX DNA damage signal by Western blotting; assay type: cell-based
Description: Cell lysates were analyzed by Western blotting using anti-γ-H2AX or anti-α-tubulin antibody (for assessing protein loading). […] Cells were then lysed and analyzed by Western blotting using anti-γ-H2AX or anti-α-tubulin antibody. […] Cells were then lysed and analyzed by Western blotting using anti-γ-H2AX or anti-α-tubulin antibody.
as §1

How did the “effect on doxorubicin-induced comet tail moment” value (H9C2 cardiomyocytes [1]) turn out when `C[C@@H](CN1CC(=O)NC(=O)C1)N1CC(=O)NC(=O)C1` [dexrazoxane] was run?
Its value is “effectively reduced”.

What about the “effect on doxorubicin-induced γ-H2AX signal” value (H9C2 cardiomyocytes [2]) of the same compound?
The value was “completely blocked”.
